Values quoted from earlier work as cited in patent US5714499A, “3-amino-2-oxo-1-piperidineacetic derivatives containing an arginine mimic as enzyme inhibitors” (Corvas International, Inc., priority 1994, dated 1998).

Molecular target: human alpha-thrombin
Details: Table 4, human alpha-thrombin; literature; cited from earlier work

Compound: CC1CNc2c(cccc2S(=O)(=O)N[C@@H](CCCNC(=N)N)C(=O)N2CC[C@@H](C)C[C@@H]2C(=O)O)C1 (stereo partly drawn) [Argatroban, 2R,4R-4-methyl-1-[N-2-(3-methyl-1,2,3,4-tetrahydro-8-quinolinesulfonyl)-L-argininal]-2-piperdinecarboxylic acid, reference compound]
- Ki: 19 nM
